This passage reports Ki results from patent US7297705B2, “Azaindolylalkylamine derivatives as 5-hydroxytryptamine-6 ligands” (Wyeth, priority 2001, dated 2007).

Sequences of proteins named here, by UniProt entry; tags and fusion partners are left off.
UniProt P50406, whole entry: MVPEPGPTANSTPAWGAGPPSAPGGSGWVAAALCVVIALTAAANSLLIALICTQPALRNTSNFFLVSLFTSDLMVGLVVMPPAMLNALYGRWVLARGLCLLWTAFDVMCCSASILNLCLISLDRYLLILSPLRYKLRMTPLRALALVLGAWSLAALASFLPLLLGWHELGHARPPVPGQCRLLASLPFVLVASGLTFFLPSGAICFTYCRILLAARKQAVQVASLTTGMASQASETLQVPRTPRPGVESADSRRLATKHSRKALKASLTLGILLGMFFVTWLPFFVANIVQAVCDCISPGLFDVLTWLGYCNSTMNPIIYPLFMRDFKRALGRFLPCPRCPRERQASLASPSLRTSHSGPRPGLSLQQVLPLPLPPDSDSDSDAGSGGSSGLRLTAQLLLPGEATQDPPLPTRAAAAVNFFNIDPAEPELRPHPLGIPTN

This experiment has as its target human cloned 5-HT6 receptors (Homo sapiens, UniProt P50406). Kind of experiment: 5-HT6 binding affinity, [3H]-LSD displacement on membranes of Hela cells expressing human cloned 5-HT6 receptors. As to conditions: read-out: 5-HT6 Binding Ki; [3H]-LSD 3.0 nM, 120 min at room temperature, Ki=IC50/(1+L/KD).

The Ki is a measure of affinity in units of concentration, obtained from inhibition or displacement. Consider `NCCc1cn(S(=O)(=O)c2cccc(Cl)c2Cl)c2ncccc12`, for which the Ki was determined as 2.5 nM.
To `NCCc1cn(S(=O)(=O)c2ccc(Cl)c(Cl)c2)c2ncccc12` belongs 20.3 nM.
For `CN(C)CCc1cn(S(=O)(=O)c2ccc(C(C)(C)C)cc2)c2ncccc12` the value was 60.3 nM; for `NCCc1cn(S(=O)(=O)c2cc(Cl)cc(Cl)c2)c2ncccc12`, 16.3 nM; for `NCCc1cn(S(=O)(=O)c2cccc(Br)c2)c2ncccc12`, 5.6 nM.
Regarding `NCCc1cn(S(=O)(=O)c2cc(Cl)ccc2Cl)c2ncccc12`, the Ki was found to be 72.7 nM.
